The target of the test is Glycogen synthase kinase-3 beta (Homo sapiens, UniProt P49841).

Protein sequences, listed by entry. Tags and fused reporters are not part of them. Lines headed by an entry give the natural chain unless they say otherwise; changes in a name come on top.
UniProt P49841: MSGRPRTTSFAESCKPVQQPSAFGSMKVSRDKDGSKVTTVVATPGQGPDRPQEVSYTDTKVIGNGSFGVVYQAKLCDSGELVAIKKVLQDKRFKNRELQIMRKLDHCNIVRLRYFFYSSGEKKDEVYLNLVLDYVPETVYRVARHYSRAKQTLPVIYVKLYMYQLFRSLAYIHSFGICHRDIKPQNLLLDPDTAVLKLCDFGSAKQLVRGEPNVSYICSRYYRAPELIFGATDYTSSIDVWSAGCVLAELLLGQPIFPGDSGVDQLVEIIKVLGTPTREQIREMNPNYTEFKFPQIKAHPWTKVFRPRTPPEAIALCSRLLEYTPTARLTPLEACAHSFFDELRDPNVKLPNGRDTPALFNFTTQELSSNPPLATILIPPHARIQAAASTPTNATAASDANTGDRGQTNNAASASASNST

Usually IC50 stands for the concentration that inhibits the measured activity by half. Compound `Cc1ccc(S(=O)(=O)n2cc(/C=C3\SC(=S)NC3=O)c3ccccc32)cc1` displayed an IC50 of over 10 µM.
Next, `COc1cc(/C=C2\SC(=S)NC2=O)cc(Br)c1OCc1ccccc1C`: over 10 µM; `O=C1NC(=O)/C(=C/c2ccc(-c3cc([N+](=O)[O-])ccc3Cl)o2)S1`: over 10 µM; `O=C1NC(=S)S/C1=C\c1ccc(O)c([N+](=O)[O-])c1`: 3.97 µM.
Take `O=C1NC(=S)S/C1=C\c1ccccc1OS(=O)(=O)c1ccccc1[N+](=O)[O-]`: the IC50 came to 1.56 µM.
In turn, `COc1ccc(-c2ccc(/C=C3\SC(=S)NC3=O)o2)c([N+](=O)[O-])c1` displayed an IC50 of 5.56 µM.
Turning to `CCCC1=C(c2nnc(C)o2)C(c2cccc(C#N)c2Br)c2c[nH]nc2N1` (centres undefined), the IC50 came out at 0.0007 µM.
To `O=C1NC(=O)C(c2cn(CCCO)c3ncccc23)=C1c1cnccn1` belongs 0.005 µM.
To `Cc1ccc(/N=C2/NC(=O)S/C2=C\c2ccccc2Cl)cc1` belongs over 10 µM.
